Results: US11697772B2, “Hydrotropic composition and its uses” (KEMIRA OYJ, priority 2017, dated 2023)

Assay: Critical micelle concentration by optical pendant drop method (surface tension)
Type: physicochemical
Conditions: in water, superscript L logarithmic fitting, S sigmoidal fitting

- CMC (critical micelle concentration): 23 ± 4^L mM
- CMC (critical micelle concentration) (listed as Ch decanoate): 23 ± 4 mM
Substance: choline decanoate [Ch Decanoate]
